This series concerns rats. In words: Drug discrimination experiment in rats. Conditions: 0.1 mg/kg, 1.0 mg/kg, substitution for morphine 4 mg/kg.

In the case of `Nc1ccc(CN2CCN(CC(=O)c3ccccc3)CC2)cc1` [IV-12, N^1-(4-aminobenzyl)-N^4-phenacyl piperazine], the Discriminating effect result is “does not have obvious discriminating effect”.

(Values after US7332495B2 (priority 2002, dated 2008).)
